What was measured:
[1] = target: 5-hydroxytryptamine receptor 2A (Rattus norvegicus, UniProt P14842)
[2] = target: T1, 5-hydroxytryptamine receptor 2C (Rattus norvegicus, UniProt P08909)
T1 sequence (P08909 whole entry): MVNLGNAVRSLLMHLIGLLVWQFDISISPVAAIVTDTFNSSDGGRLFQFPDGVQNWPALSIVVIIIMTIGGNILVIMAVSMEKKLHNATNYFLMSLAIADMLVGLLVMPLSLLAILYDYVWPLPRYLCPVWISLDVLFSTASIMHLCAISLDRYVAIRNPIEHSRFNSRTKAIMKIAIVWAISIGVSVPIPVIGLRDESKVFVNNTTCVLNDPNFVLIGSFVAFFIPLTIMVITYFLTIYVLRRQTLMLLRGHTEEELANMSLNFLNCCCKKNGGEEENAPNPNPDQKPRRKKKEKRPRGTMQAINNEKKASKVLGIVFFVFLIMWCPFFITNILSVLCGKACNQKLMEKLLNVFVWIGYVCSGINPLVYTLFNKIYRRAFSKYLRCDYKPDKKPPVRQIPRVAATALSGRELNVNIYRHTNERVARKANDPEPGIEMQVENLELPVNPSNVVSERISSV

Chains of the proteins cited; added tags and fusions are not shown. Lines headed by an entry give the natural chain unless they say otherwise; changes in a name come on top. A line that says so, or that is headed by a name, gives the form on record, which may keep a tag or linker.
UniProt P14842, whole entry: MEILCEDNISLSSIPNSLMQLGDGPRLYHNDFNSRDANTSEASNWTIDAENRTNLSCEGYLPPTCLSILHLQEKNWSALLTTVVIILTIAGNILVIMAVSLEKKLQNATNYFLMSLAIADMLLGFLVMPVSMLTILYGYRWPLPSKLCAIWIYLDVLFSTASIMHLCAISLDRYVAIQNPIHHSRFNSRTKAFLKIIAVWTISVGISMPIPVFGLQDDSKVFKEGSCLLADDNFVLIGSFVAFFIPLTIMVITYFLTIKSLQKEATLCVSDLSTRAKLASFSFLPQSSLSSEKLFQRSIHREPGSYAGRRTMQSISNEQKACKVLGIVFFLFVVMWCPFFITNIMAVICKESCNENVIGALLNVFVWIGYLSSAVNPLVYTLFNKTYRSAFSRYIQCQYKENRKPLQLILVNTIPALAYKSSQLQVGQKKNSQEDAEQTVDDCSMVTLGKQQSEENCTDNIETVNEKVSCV
UniProt P35372, whole entry: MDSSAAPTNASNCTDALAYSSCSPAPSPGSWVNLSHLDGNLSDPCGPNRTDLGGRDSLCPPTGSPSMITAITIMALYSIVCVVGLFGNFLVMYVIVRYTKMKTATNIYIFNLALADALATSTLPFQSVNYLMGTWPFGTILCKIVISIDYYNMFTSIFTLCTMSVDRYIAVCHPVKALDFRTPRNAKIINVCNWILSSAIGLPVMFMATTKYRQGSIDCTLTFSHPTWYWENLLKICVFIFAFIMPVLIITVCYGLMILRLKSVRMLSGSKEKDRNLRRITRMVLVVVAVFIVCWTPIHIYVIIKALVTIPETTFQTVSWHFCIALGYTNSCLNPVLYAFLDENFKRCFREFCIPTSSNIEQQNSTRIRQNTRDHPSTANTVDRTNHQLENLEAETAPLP
UniProt P41144: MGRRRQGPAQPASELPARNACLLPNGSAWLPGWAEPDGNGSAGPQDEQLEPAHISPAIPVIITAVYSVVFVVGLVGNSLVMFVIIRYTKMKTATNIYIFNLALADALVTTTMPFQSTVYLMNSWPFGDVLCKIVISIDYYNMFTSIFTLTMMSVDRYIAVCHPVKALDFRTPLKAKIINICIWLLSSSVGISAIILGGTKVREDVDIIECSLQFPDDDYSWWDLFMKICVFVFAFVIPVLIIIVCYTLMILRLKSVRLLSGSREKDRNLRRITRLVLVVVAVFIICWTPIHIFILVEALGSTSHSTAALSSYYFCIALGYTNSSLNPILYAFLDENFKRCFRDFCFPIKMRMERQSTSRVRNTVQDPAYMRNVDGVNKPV
UniProt P35462, as listed by the source: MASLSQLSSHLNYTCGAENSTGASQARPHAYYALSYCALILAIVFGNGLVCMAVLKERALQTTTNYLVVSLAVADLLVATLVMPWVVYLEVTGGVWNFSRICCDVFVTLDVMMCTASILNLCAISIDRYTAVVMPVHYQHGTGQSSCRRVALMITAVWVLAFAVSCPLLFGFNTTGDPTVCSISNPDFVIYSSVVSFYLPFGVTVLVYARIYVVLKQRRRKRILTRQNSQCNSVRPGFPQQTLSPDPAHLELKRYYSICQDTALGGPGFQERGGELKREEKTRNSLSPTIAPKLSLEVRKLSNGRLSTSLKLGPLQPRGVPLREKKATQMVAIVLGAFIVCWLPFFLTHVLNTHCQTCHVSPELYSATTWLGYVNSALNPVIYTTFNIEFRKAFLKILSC
UniProt P14416, whole entry: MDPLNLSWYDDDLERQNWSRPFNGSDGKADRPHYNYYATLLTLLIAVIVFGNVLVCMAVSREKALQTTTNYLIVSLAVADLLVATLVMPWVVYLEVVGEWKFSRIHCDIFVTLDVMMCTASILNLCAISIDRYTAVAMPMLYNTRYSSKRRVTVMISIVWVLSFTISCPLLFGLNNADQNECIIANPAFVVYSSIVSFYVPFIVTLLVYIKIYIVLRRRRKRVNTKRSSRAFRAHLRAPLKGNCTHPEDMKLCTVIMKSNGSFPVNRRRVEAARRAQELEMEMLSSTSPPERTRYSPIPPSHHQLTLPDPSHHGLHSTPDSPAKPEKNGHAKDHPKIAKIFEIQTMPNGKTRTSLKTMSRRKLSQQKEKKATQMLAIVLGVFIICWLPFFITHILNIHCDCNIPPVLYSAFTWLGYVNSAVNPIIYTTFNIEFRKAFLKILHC

Mu-type opioid receptor = Mu-type opioid receptor (Homo sapiens, UniProt P35372)
[3] = target: Kappa-type opioid receptor (Cavia porcellus, UniProt P41144)
D(3) dopamine receptor = D(3) dopamine receptor (Homo sapiens, UniProt P35462)
D(2) dopamine receptor = D(2) dopamine receptor (Homo sapiens, UniProt P14416)

Structure (SMILES): Cc1nc2sccn2c(=O)c1CCN1CCC(=C(c2ccc(F)cc2)c2ccc(F)cc2)CC1
- Ki [1]: 4.7 nM
- Ki [2]: 11 nM

Structure (SMILES): CCC12CCN(CC3(O)CC3)C(Cc3ccc(O)cc31)C2(C)C (stereo not drawn)
- Ki (Mu-type opioid receptor): 0.2 nM
- Ki [3]: 0.1 nM

Structure (SMILES): CCCN1CCCC(c2cccc(O)c2)C1 (stereo not drawn) [CAS_85976-54-1]
- Ki (D(3) dopamine receptor): 262 nM
- Ki (D(2) dopamine receptor): 192 nM

Structure (SMILES): CC[C@H](C)[C@H](NC(=O)[C@H](CCCNC(=N)N)NC(=O)[C@H](CCCNC(=N)N)NC(=O)[C@H](CC(C)C)NC(=O)[C@H](Cc1ccccc1)NC(=O)CNC(=O)CNC(=O)[C@@H](N)Cc1ccc(O)cc1)C(=O)N[C@@H](CCCNC(=N)N)C(=O)N1CCC[C@H]1C(=O)N[C@@H](CCCCN)C(=O)N[C@@H](CC(C)C)C(=O)N[C@@H](CCCCN)C(=O)O [Dynorphin A (1-13)]
- Ki [3]: 0.4 nM

Structure (SMILES): CC(C)C[C@H](NC(=O)[C@H](Cc1ccccc1)NC(=O)CNC(=O)CNC(=O)[C@@H](N)Cc1ccc(O)cc1)C(=O)N[C@@H](CCCN=C(N)N)C(=O)N[C@@H](CCCN=C(N)N)C(=O)N[C@@H](CCC(N)=O)C(=O)N[C@@H](Cc1ccccc1)C(=O)N[C@@H](CCCCN)C(=O)N[C@H](C(=O)N[C@H](C(=O)N[C@H](C(=O)O)[C@@H](C)O)C(C)C)C(C)C [Dynorphin B (1-13)]
- Ki [3]: 0.9 nM

Reference: BindingDB's records for PubMed 9686407 (Sri International, 1998)
